Experimental data: PubChem BioAssay AID2544 (Sanford-Burnham Center for Chemical Genomics, 2010)
Only a part is listed here, and it is no random draw. Some results for these compounds are left out of this collection, so the calls shown say nothing about other tests. Activity calls are given as the source filed them.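 The calls were made as follows: active = inhibition reaching a set limit with compound at 10 µM in the primary screen (cut at about 35% in these data); inactive = the rest.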

Chains of the proteins cited; added tags and fusions are not shown.
UniProt P09923, whole entry: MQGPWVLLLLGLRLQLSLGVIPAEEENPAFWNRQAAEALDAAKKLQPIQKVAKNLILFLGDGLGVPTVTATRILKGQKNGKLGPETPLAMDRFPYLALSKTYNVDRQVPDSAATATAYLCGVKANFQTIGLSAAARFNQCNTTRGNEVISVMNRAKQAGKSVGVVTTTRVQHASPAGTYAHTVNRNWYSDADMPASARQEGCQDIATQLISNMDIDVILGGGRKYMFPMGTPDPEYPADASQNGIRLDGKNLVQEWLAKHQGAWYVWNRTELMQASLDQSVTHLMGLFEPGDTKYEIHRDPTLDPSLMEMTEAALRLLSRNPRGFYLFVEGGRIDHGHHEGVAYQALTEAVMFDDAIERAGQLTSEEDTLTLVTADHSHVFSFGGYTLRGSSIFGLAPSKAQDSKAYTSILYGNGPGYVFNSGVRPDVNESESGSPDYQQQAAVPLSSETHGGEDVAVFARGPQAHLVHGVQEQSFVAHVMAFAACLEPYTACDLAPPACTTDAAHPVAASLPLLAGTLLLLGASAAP

Biological target: Intestinal-type alkaline phosphatase (Homo sapiens) (UniProt P09923)
Assay: human IAP inhibitors, primary screen, biochemical, luminescence, uHTS (AID 2544);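 also: plate controls were DMSO wells with enzyme for no effect and no-enzyme buffer wells for full effect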
Settings: purified IAP, CDP-Star luminescence, 30 min; at 10 µM; active compounds read high

**Q.** Which inhibition does the source give for `CN(C)C1(CNC(=O)c2ccc(Br)cc2)CCCCC1` here?
**A.** inactive: -9.7%

**Q.** `COc1cc(C(=O)NCC2(N(C)C)CCCCC2)c([N+](=O)[O-])cc1OC` was tested. Which inhibition did it give?
**A.** inactive: -11.9%

**Q.** `COc1cccc(C(=O)NCC2(N3CCCCC3)CCCCC2)c1` was tested. Which inhibition did it give?
**A.** inactive: 2.8%

**Q.** Which inhibition does the source give for `COc1ccc(Cl)cc1C(=O)NCC1(N(C)C)CCCCC1` here?
**A.** inactive: -3.9%

**Q.** How did the inhibition turn out when `O=C(NCC1(N2CCCCC2)CCCCC1)c1cccc(Cl)c1` was run?
**A.** inactive: -1.2%

**Q.** For `O=C(OC1CN2CCC1CC2)C(CO)(c1ccccc1)c1ccccc1` (centres undefined), which inhibition is on record?
**A.** inactive: 3.9%

**Q.** `COc1ccc(Br)c(C(=O)NCC2(N3CCCCC3)CCCCC2)c1` was tested. Which inhibition did it give?
**A.** inactive: -2.4%

**Q.** How did the inhibition turn out when `CN(C)c1cccc(C(=O)NCC2(N(C)C)CCCCC2)c1` was run?
**A.** inactive: -8.9%

**Q.** With `CC(C)Oc1ccc(C(=O)NCC2(N(C)C)CCCCC2)cc1` as the molecule, how does the inhibition read?
**A.** inactive: -14.2%

**Q.** With `O=C(NCC1(N2CCCCC2)CCCCC1)c1cc([N+](=O)[O-])ccc1Cl` as the molecule, how does the inhibition read?
**A.** inactive: 1.8%

**Q.** For `CN1[C@@H]2CC[C@H]1CC(OC(=O)C(O)(c1ccccc1)c1ccccc1)C2` (some centres undefined), which inhibition is on record?
**A.** inactive: 13.4%

**Q.** How did the inhibition turn out when `CC(C)N1C(=O)CC2(CCN(CCOC(=O)C(O)(c3ccccc3)c3ccccc3)CC2)C1=O` was run?
**A.** inactive: 28.7%

**Q.** `CCN(CC)CC(C)C(C)OC(=O)C(O)(c1ccccc1)c1ccccc1` (centres undefined) was tested. Which inhibition did it give?
**A.** inactive: -2.1%

**Q.** Which inhibition does the source give for `COc1cc(SC)ccc1C(=O)NCC1(N(C)C)CCCCC1` here?
**A.** inactive: -6.7%

**Q.** `Cc1ccc(C(=O)NCC2(N3CCCCC3)CCCCC2)cc1` was tested. Which inhibition did it give?
**A.** inactive: 8%

**Q.** `Cc1ccccc1C(=O)NCC1(N2CCCCC2)CCCCC1` was tested. Which inhibition did it give?
**A.** inactive: -2%

**Q.** With `CN(C)C1CCCC1OC(=O)C(O)(c1ccccc1)c1ccccc1` (centres undefined) as the molecule, how does the inhibition read?
**A.** inactive: -3.9%

**Q.** Which inhibition does the source give for `CN(C)c1ccc(C(=O)NCC2(N(C)C)CCCCC2)cc1` here?
**A.** inactive: -9.3%

**Q.** Which inhibition does the source give for `C=CCN1CCN(CCOC(=O)C(O)(c2ccccc2)c2ccccc2)CC1` here?
**A.** inactive: -5.1%

**Q.** For `O=C(NCC1(N2CCCCC2)CCCCC1)c1cc(F)c(F)cc1Cl`, which inhibition is on record?
**A.** inactive: -1.8%

**Q.** How did the inhibition turn out when `Cc1cc(C(=O)NCC2(N3CCCCC3)CCCCC2)ccc1[N+](=O)[O-]` was run?
**A.** inactive: 8.1%

**Q.** For `CCN1CCCC(OC(=O)C2(O)c3ccccc3C=Cc3ccccc32)C1` (centres undefined), which inhibition is on record?
**A.** inactive: 1.1%

**Q.** With `O=C(NCC1(N2CCCCC2)CCCCC1)c1cccc(Br)c1` as the molecule, how does the inhibition read?
**A.** inactive: -29.6%

**Q.** `COc1ccc(C(=O)NCC2(N(C)C)CCCCC2)cc1` was tested. Which inhibition did it give?
**A.** inactive: 6.2%
